# Assay results published in patent publication US20080026996A1, “Selective Vpac2 Receptor Reptide Agonists” (ELI LILLY AND COMPANY, priority 2004, published 2008).
# By UniProt entry, the sequences of proteins in these tests, tags left out. Residues count along the entry.
# UniProt P32241, 31-457: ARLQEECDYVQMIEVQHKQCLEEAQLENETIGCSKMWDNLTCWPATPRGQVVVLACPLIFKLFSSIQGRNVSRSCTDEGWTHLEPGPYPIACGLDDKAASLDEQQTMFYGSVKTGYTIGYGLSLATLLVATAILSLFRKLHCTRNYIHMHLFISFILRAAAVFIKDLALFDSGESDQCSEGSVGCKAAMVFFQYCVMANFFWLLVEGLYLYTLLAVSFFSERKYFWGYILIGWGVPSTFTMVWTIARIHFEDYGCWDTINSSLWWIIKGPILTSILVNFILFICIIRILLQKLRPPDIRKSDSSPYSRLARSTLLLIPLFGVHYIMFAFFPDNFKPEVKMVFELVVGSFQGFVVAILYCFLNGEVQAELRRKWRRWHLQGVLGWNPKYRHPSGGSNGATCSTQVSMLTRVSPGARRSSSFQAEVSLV
# Key:
# [1] = target: T1, rat VPAC2 receptor (Rattus norvegicus, UniProt P35000); test: DiscoveRx in vitro potency, CHO-PO cells transiently transfected with rat VPAC 2 receptor DNA; format: cell-based; set-up: expressed in transfected cells; host or cells: CHO-PO, transient
# T1 sequence (P35000 23-437): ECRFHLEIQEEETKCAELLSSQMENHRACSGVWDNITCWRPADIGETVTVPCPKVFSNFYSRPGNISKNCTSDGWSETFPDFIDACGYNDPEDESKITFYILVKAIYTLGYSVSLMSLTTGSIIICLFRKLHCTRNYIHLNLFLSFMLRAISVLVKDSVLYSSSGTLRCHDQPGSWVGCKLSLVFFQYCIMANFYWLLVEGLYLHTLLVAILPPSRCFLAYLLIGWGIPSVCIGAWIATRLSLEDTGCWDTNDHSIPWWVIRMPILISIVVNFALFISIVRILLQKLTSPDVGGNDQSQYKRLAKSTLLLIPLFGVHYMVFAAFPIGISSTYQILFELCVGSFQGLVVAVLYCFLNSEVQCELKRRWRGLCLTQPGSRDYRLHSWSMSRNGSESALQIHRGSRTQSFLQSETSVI
# Procedure: Also, the cells are washed twice. […] The stimuli are present for 30 minutes. Then, the assay buffer is gently removed.
# [2] = target: T2, human VPAC2 (Homo sapiens, UniProt P41587); test: Alpha screen cAMP in vitro potency, human VPAC2 receptor; format: cell-based
# T2 construct: expressed in transfected cells
# T2 sequence (P41587 24-438): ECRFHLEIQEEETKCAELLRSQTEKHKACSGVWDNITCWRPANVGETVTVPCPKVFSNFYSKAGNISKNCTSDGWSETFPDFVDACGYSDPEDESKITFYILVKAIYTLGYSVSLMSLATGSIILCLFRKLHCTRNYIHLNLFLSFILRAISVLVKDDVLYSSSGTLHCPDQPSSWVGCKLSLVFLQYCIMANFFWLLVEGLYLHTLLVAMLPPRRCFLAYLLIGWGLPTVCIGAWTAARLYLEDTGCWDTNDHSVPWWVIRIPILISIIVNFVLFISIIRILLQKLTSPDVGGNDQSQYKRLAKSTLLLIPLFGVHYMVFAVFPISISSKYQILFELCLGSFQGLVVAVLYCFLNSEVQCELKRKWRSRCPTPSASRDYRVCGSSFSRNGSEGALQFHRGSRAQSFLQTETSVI
# Procedure: Alpha screen: Cells are washed in the culture flask once with PBS. Then, the cells are rinsed with enzyme free dissociation buffer. The dissociated cells are removed. The cells are then spun down and washed in stimulation buffer. For each data point, 50,000 cells suspended in stimulation buffer are used. To this buffer, Alpha screen acceptor beads are added along with the stimuli. This mixture is incubated for 60 minutes. Lysis buffer and Alpha screen donor beads are added and are incubated for 60 to 120 minutes. The Alpha screen signal (indicative of intracellular cAMP levels) is read in a suitable instrument (e.g. AlphaQuest from Perkin-Elmer). Steps including Alpha screen donor and acceptor beads are performed in reduced light.
# [3] = target: human VPAC1 (Homo sapiens, UniProt P32241); test: Filter binding assay, membranes of cells transiently transfected with human VPAC1, 125I-labeled VIP tracer (Table 2); set-up: expressed in transfected cells
# Procedure: (§1) For this assay, the solutions and equipment include:
# (§2) Presoak solution: 0.5% Polyethyleneamine in Aqua dest.
# (§3) Buffer for flushing filter plates: 25 mM HEPES pH 7.4
# (§4) Blocking buffer: 25 mM HEPES pH 7.4; 0.2% protease free BSA
# (§5) Assay buffer: 25 mM HEPES pH 7.4; 0.5% protease free BSA
# (§6) Dilution and assay plate: PS-Microplate, U form
# (§7) Filtration Plate Multiscreen FB Opaque Plate; […] Type B Glasfiber filter
# (§8) In order to prepare the filter plates, aspirate the presoak solution by vacuum filtration. Flush the plates twice with 200 μL flush buffer. Add 200 μL blocking buffer to the filter plate. The filter plate is then incubated […] for 1 hour at room temperature.
# (§9) Fill the assay plate with 25 μL assay buffer, 25 μL membranes (2.5 μg) suspended in assay buffer, 25 μL compound (agonist) in assay buffer, and 25 μL tracer (about 40000 cpm) in assay buffer. Incubate the filled plate for 1 hour with shaking.
# (§10) Conduct the transfer from assay plate to filter plate. Aspirate the blocking buffer by vacuum filtration and wash two times with flush buffer. Transfer 90 μL from the assay plate to the filter plate. Aspirate the 90 μL transferred from assay plate and wash three times with 200 μL flush buffer. Remove the plastic support. Dry for 1 hour at 60° C. Add 30 μL Microscint. Perform the count.
# [4] = target: T2, human VPAC2; test: Filter binding assay, membranes of stable VPAC2 cell line, 125I-labeled VIP tracer (Table 2)
# Procedure: as §1, §2, §3, §4, §5, §6, §7, §8, §9, §10
# [5] = Rat serum stability studies (remaining active peptide by DiscoveRx cAMP on CHO-VPAC2 cells); format: in vitro ADME; conditions: 37° C.; for Rat Serum Stability (estimated purity in % after 18 hours): 10 μM peptide in rat serum, versus 4° C. aliquot with aprotinin
# Procedure: Store the aliquot with aprotinin at 4° C. Store the aliquot without aprotinin at 37° C. […] […] Incubate in room temperature for 30 minutes. Remove the supernatant. […] Incubate on the shaker (300 rpm) for 1 hour. Proceed as normal with the DiscoveRx kit. Include cAMP standards in column 12. Determine EC50 values from the cAMP assay data.
structure (smiles),measurement,setting,value
CCCCCC(=O)N[C@@H](Cc1c[nH]cn1)C(=O)N[C@@H](CO)C(=O)N[C@@H](CC(=O)O)C(=O)N[C@@H](C)C(=O)N[C@H](C(=O)N[C@@H](Cc1ccccc1)C(=O)N[C@H](C(=O)N[C@@H](CC(=O)O)C(=O)N[C@@H](CC(N)=O)C(=O)N[C@@H](Cc1ccc(O)cc1)C(=O)N[C@H](C(=O)N[C@@H](CCCN)C(=O)N[C@@H](CC(C)C)C(=O)N[C@@H](CCCNC(=N)N)C(=O)NC(C)(C)C(=O)N[C@@H](CCC(N)=O)C(=O)N[C@H](C(=O)N[C@@H](C)C(=O)N[C@@H](C)C(=O)NC(C)(C)C(=O)N[C@@H](CCCCN)C(=O)N[C@@H](Cc1ccc(O)cc1)C(=O)N[C@@H](CC(C)C)C(=O)N[C@@H](CCC(N)=O)C(=O)N[C@@H](CO)C(=O)N[C@H](C(=O)N[C@@H](CCCCNC(=N)N)C(=O)N[C@@H](CCCCNC(=N)N)C(=O)NCC(=O)NCC(=O)N1CCC[C@H]1C(=O)N[C@@H](CO)C(=O)N[C@@H](CO)C(=O)NCC(=O)N[C@@H](C)C(=O)N1CCC[C@H]1C(=O)N1CCC[C@H]1C(=O)N1CCC[C@H]1C(=O)N[C@@H](CO)C(=O)O)[C@@H](C)CC)C(C)C)[C@@H](C)O)[C@@H](C)O)C(C)C [Agonist P335],EC50,[1],0.05 nM
same,EC50,[2],0.22 nM
same,IC50,[3],> 3000 nM
same,IC50,[4],0.39 nM
same,Rat Serum Stability (estimated purity in % after 18 hours),[5],98.66%
same,Rat Serum Stability (Estimated purity in % after 72 hours),"[5]; rat serum, 72 hours",22.0%
CCCCCC(=O)N[C@@H](Cc1c[nH]cn1)C(=O)N[C@@H](CO)C(=O)N[C@@H](CC(=O)O)C(=O)N[C@@H](C)C(=O)N[C@H](C(=O)N[C@@H](Cc1ccccc1)C(=O)N[C@H](C(=O)N[C@@H](CC(=O)O)C(=O)N[C@@H](CC(N)=O)C(=O)N[C@@H](Cc1ccc(O)cc1)C(=O)N[C@H](C(=O)N[C@@H](CCCNC(=N)N)C(=O)N[C@@H](CC(C)C)C(=O)N[C@@H](CCCNC(=N)N)C(=O)NC(C)(C)C(=O)N[C@@H](CCC(N)=O)C(=O)N[C@H](C(=O)N[C@@H](C)C(=O)N[C@@H](C)C(=O)NC(C)(C)C(=O)N[C@@H](CCCCN)C(=O)N[C@@H](Cc1ccc(O)cc1)C(=O)N[C@@H](CC(C)C)C(=O)N[C@@H](CCC(N)=O)C(=O)N[C@@H](CO)C(=O)N[C@H](C(=O)N[C@@H](CCCCN)C(=O)NC(C)(C)C(=O)N[C@@H](CCCCN)C(=O)NCC(=O)NCC(=O)N1CCC[C@H]1C(=O)N[C@@H](CO)C(=O)N[C@@H](CO)C(=O)NCC(=O)N[C@@H](C)C(=O)N1CCC[C@H]1C(=O)N1CCC[C@H]1C(=O)N1CCC[C@H]1C(=O)N[C@@H](CO)C(=O)O)[C@@H](C)CC)C(C)C)[C@@H](C)O)[C@@H](C)O)C(C)C [Agonist P349],EC50,[2],0.08 nM
same,Rat Serum Stability (estimated purity in % after 18 hours),[5],41.22%
CCCCCC(=O)N[C@@H](Cc1c[nH]cn1)C(=O)N[C@@H](CO)C(=O)N[C@@H](CC(=O)O)C(=O)N[C@@H](C)C(=O)N[C@H](C(=O)N[C@@H](Cc1ccccc1)C(=O)N[C@H](C(=O)N[C@@H](CC(=O)O)C(=O)N[C@@H](CC(N)=O)C(=O)N[C@@H](Cc1ccc(O)cc1)C(=O)N[C@H](C(=O)N[C@@H](CCCNC(=N)N)C(=O)N[C@@H](CC(C)C)C(=O)N[C@@H](CCCNC(=N)N)C(=O)NC(C)(C)C(=O)N[C@@H](CCC(N)=O)C(=O)N[C@H](C(=O)N[C@@H](C)C(=O)N[C@@H](C)C(=O)NC(C)(C)C(=O)N[C@@H](CCCCN)C(=O)N[C@@H](Cc1ccc(O)cc1)C(=O)N[C@@H](CC(C)C)C(=O)N[C@@H](CCC(N)=O)C(=O)N[C@@H](CO)C(=O)N[C@H](C(=O)N[C@H](CCCCN)C(=O)N[C@H](CCCCN)C(=O)NCC(=O)NCC(=O)N1CCC[C@H]1C(=O)N[C@@H](CO)C(=O)N[C@@H](CO)C(=O)NCC(=O)N[C@@H](C)C(=O)N1CCC[C@H]1C(=O)N1CCC[C@H]1C(=O)N1CCC[C@H]1C(=O)N[C@@H](CO)C(=O)O)[C@@H](C)CC)C(C)C)[C@@H](C)O)[C@@H](C)O)C(C)C [Agonist P353],EC50,[2],0.18 nM
same,Rat Serum Stability (estimated purity in % after 18 hours),[5],31.23%
CCCCCC(=O)N[C@@H](Cc1c[nH]cn1)C(=O)N[C@@H](CO)C(=O)N[C@@H](CC(=O)O)C(=O)N[C@@H](C)C(=O)N[C@H](C(=O)N[C@@H](Cc1ccccc1)C(=O)N[C@H](C(=O)N[C@@H](CC(=O)O)C(=O)N[C@@H](CC(N)=O)C(=O)N[C@@H](Cc1ccc(O)cc1)C(=O)N[C@H](C(=O)N[C@@H](CCCNC(=N)N)C(=O)N[C@@H](CC(C)C)C(=O)N[C@@H](CCCNC(=N)N)C(=O)NC(C)(C)C(=O)N[C@@H](CCC(N)=O)C(=O)N[C@H](C(=O)N[C@@H](C)C(=O)N[C@@H](C)C(=O)NC(C)(C)C(=O)N[C@@H](CCCCN)C(=O)N[C@@H](Cc1ccc(O)cc1)C(=O)N[C@@H](CC(C)C)C(=O)N[C@@H](CCC(N)=O)C(=O)N[C@@H](CO)C(=O)N[C@H](C(=O)N[C@@H](CCCCN)C(=O)N[C@@H](CCCCNC(=N)N)C(=O)NCC(=O)NCC(=O)N1CCC[C@H]1C(=O)N[C@@H](CO)C(=O)N[C@@H](CO)C(=O)NCC(=O)N[C@@H](C)C(=O)N1CCC[C@H]1C(=O)N1CCC[C@H]1C(=O)N1CCC[C@H]1C(=O)N[C@@H](CO)C(=O)O)[C@@H](C)CC)C(C)C)[C@@H](C)O)[C@@H](C)O)C(C)C [Agonist P354],EC50,[2],0.14 nM
same,Rat Serum Stability (estimated purity in % after 18 hours),[5],15.10%
